# Permeability data for macrocyclic peptides

Source: CycPeptMPDB (Li et al. 2023), which took these values from Kelly et al. 2021, doi:10.1021/jacs.0c06115.

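The data file gives no further conditions (lipid, pH, time, direction or concentration), and values from different papers need not be comparable. The list need not hold all peptides of the study. Peptides that the database sets to -10, its floor, are left out.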

PAMPA measures passive passage through an artificial lipid membrane.
Permeability is given as log10 of P in cm/s; higher (less negative) is more permeable.

Listed for CC(=O)N1CCC[C@H]1C(=O)N[C@@H]1C(=O)N(C)[C@H](CC(C)C)C(=O)N[C@@H](CC(C)C)C(=O)N[C@@H](CC(C)C)C(=O)N(C)[C@H](CC(C)C)C(=O)N[C@@H](C)C(=O)N[C@@H](CC(C)C)C(=O)N2CCC[C@@H]2C(=O)O[C@@H]1C: PAMPA -5.86 (log10 cm/s).
Listed for CC(=O)N1CCC[C@H]1C(=O)N[C@@H]1C(=O)N[C@H](CC(C)C)C(=O)N(C)[C@H](CC(C)C)C(=O)N[C@H](CC(C)C)C(=O)N(C)[C@H](CC(C)C)C(=O)N(C)[C@@H](C)C(=O)N[C@@H](CC(C)C)C(=O)N2CCC[C@@H]2C(=O)O[C@@H]1C: PAMPA -5.49 (log10 cm/s).
Listed for CC(=O)N1CCC[C@H]1C(=O)N(C)[C@@H](CC(C)C)C(=O)N[C@@H]1C(=O)N[C@@H](CC(C)C)C(=O)N(C)[C@@H](CC(C)C)C(=O)N[C@H](CC(C)C)C(=O)N(C)[C@@H](C)C(=O)N[C@@H](CC(C)C)C(=O)N2CCC[C@@H]2C(=O)O[C@@H]1C: PAMPA -5.66 (log10 cm/s).
Listed for CC(=O)N1CCC[C@H]1C(=O)N(C)[C@@H](CC(C)C)C(=O)N[C@@H]1C(=O)N[C@@H](CC(C)C)C(=O)N[C@H](CC(C)C)C(=O)N[C@H](CC(C)C)C(=O)N[C@@H](C)C(=O)N[C@@H](CC(C)C)C(=O)N2CCC[C@H]2C(=O)O[C@@H]1C: PAMPA -7.31 (log10 cm/s).
Listed for CC(=O)N1CCC[C@@H]1C(=O)N(C)[C@H](CC(C)C)C(=O)N[C@@H]1C(=O)N[C@@H](CC(C)C)C(=O)N[C@H](CC(C)C)C(=O)N(C)[C@@H](CC(C)C)C(=O)N(C)[C@@H](C)C(=O)N[C@H](CC(C)C)C(=O)N2CCC[C@@H]2C(=O)O[C@@H]1C: PAMPA -5.70 (log10 cm/s).
Listed for CC(=O)N1CCC[C@@H]1C(=O)N(C)[C@H](CC(C)C)C(=O)N[C@@H]1C(=O)N(C)[C@@H](CC(C)C)C(=O)N(C)[C@H](CC(C)C)C(=O)N[C@@H](CC(C)C)C(=O)N[C@@H](C)C(=O)N[C@@H](CC(C)C)C(=O)N2CCC[C@@H]2C(=O)O[C@@H]1C: PAMPA -6.72 (log10 cm/s).
Listed for CC(=O)N1CCC[C@H]1C(=O)N[C@@H]1C(=O)N[C@H](CC(C)C)C(=O)N(C)[C@H](CC(C)C)C(=O)N[C@@H](CC(C)C)C(=O)N(C)[C@H](CC(C)C)C(=O)N(C)[C@@H](C)C(=O)N[C@@H](CC(C)C)C(=O)N2CCC[C@@H]2C(=O)O[C@@H]1C: PAMPA -5.17 (log10 cm/s).
Listed for CC(=O)N1CCC[C@H]1C(=O)N[C@@H]1C(=O)N[C@H](CC(C)C)C(=O)N[C@@H](CC(C)C)C(=O)N(C)[C@@H](CC(C)C)C(=O)N[C@H](CC(C)C)C(=O)N(C)[C@@H](C)C(=O)N[C@@H](CC(C)C)C(=O)N2CCC[C@@H]2C(=O)O[C@@H]1C: PAMPA -4.91 (log10 cm/s).
Listed for CC(=O)N1CCC[C@@H]1C(=O)N(C)[C@H](CC(C)C)C(=O)N[C@@H]1C(=O)N(C)[C@H](CC(C)C)C(=O)N(C)[C@H](CC(C)C)C(=O)N(C)[C@@H](CC(C)C)C(=O)N(C)[C@@H](C)C(=O)N[C@@H](CC(C)C)C(=O)N2CCC[C@@H]2C(=O)O[C@@H]1C: PAMPA -5.56 (log10 cm/s).
Listed for CC(=O)N1CCC[C@H]1C(=O)N[C@@H]1C(=O)N[C@H](CC(C)C)C(=O)N[C@H](CC(C)C)C(=O)N[C@H](CC(C)C)C(=O)N[C@H](CC(C)C)C(=O)N(C)[C@@H](C)C(=O)N[C@@H](CC(C)C)C(=O)N2CCC[C@@H]2C(=O)O[C@@H]1C: PAMPA -5.17 (log10 cm/s).
Listed for CC(=O)N1CCC[C@H]1C(=O)N(C)[C@H](CC(C)C)C(=O)N[C@@H]1C(=O)N[C@@H](CC(C)C)C(=O)N(C)[C@H](CC(C)C)C(=O)N[C@H](CC(C)C)C(=O)N(C)[C@@H](C)C(=O)N[C@@H](CC(C)C)C(=O)N2CCC[C@@H]2C(=O)O[C@@H]1C: PAMPA -5.72 (log10 cm/s).
Listed for CC(=O)N1CCC[C@H]1C(=O)N(C)[C@H](CC(C)C)C(=O)N[C@@H]1C(=O)N[C@@H](CC(C)C)C(=O)N[C@@H](CC(C)C)C(=O)N[C@@H](CC(C)C)C(=O)N[C@@H](C)C(=O)N[C@H](CC(C)C)C(=O)N2CCC[C@@H]2C(=O)O[C@@H]1C: PAMPA -7.68 (log10 cm/s).
Listed for CC(=O)N1CCC[C@@H]1C(=O)N(C)[C@@H](CC(C)C)C(=O)N[C@@H]1C(=O)N[C@H](CC(C)C)C(=O)N[C@@H](CC(C)C)C(=O)N[C@@H](CC(C)C)C(=O)N(C)[C@H](C)C(=O)N[C@H](CC(C)C)C(=O)N2CCC[C@@H]2C(=O)O[C@@H]1C: PAMPA -5.47 (log10 cm/s).
Listed for CC(=O)N1CCC[C@@H]1C(=O)N(C)[C@@H](CC(C)C)C(=O)N[C@@H]1C(=O)N[C@@H](CC(C)C)C(=O)N[C@@H](CC(C)C)C(=O)N[C@@H](CC(C)C)C(=O)N(C)[C@@H](C)C(=O)N[C@H](CC(C)C)C(=O)N2CCC[C@@H]2C(=O)O[C@@H]1C: PAMPA -5.93 (log10 cm/s).
Listed for CC(=O)N1CCC[C@H]1C(=O)N(C)[C@H](CC(C)C)C(=O)N[C@@H]1C(=O)N[C@@H](CC(C)C)C(=O)N(C)[C@H](CC(C)C)C(=O)N[C@H](CC(C)C)C(=O)N(C)[C@H](C)C(=O)N[C@H](CC(C)C)C(=O)N2CCC[C@@H]2C(=O)O[C@@H]1C: PAMPA -6.40 (log10 cm/s).
Listed for CC(=O)N1CCC[C@@H]1C(=O)N(C)[C@H](CC(C)C)C(=O)N[C@@H]1C(=O)N[C@H](CC(C)C)C(=O)N(C)[C@H](CC(C)C)C(=O)N[C@H](CC(C)C)C(=O)N(C)[C@@H](C)C(=O)N[C@H](CC(C)C)C(=O)N2CCC[C@@H]2C(=O)O[C@@H]1C: PAMPA -5.94 (log10 cm/s).

Extract of 3 entries:

CC(=O)N1CCC[C@H]1C(=O)N(C)[C@H](CC(C)C)C(=O)N[C@@H]1C(=O)N[C@@H](CC(C)C)C(=O)N(C)[C@H](CC(C)C)C(=O)N[C@H](CC(C)C)C(=O)N(C)[C@@H](C)C(=O)N[C@@H](CC(C)C)C(=O)N2CCC[C@@H]2C(=O)O[C@@H]1C has PAMPA -5.72 (log10 cm/s).
CC(=O)N1CCC[C@H]1C(=O)N[C@@H]1C(=O)N[C@H](CC(C)C)C(=O)N[C@@H](CC(C)C)C(=O)N(C)[C@@H](CC(C)C)C(=O)N[C@H](CC(C)C)C(=O)N(C)[C@@H](C)C(=O)N[C@@H](CC(C)C)C(=O)N2CCC[C@@H]2C(=O)O[C@@H]1C has PAMPA -4.91 (log10 cm/s).
CC(=O)N1CCC[C@H]1C(=O)N[C@@H]1C(=O)N[C@H](CC(C)C)C(=O)N(C)[C@H](CC(C)C)C(=O)N[C@@H](CC(C)C)C(=O)N(C)[C@H](CC(C)C)C(=O)N(C)[C@@H](C)C(=O)N[C@@H](CC(C)C)C(=O)N2CCC[C@@H]2C(=O)O[C@@H]1C has PAMPA -5.17 (log10 cm/s).